This note sets out measurements from PubChem BioAssay AID775 (SRMLSC, 2007).

Each structure is given as a SMILES string. The entries are a selection whose mix differs from that of the whole data set. The source made the active and inactive calls.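 Rule for the calls: active = inhibition above a set limit, placed 3 SD over the median of all compounds (cut at about 26% in these data); inactive = the rest.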

The experiment is described as follows: rescue of nicotinamide-shortened yeast lifespan – S. cerevisiae, OD615, primary screen (AID 775).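 Note: 0% = nicotinamide-treated wells and 100% = cells grown without nicotinamide.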 Particulars: S. cerevisiae growth with nicotinamide, at 10 µM, active compounds read high, deaD strain in restrictive glucose medium.
`Cc1nc2ccc3ccccc3c2o1.O=[N+]([O-])c1cc([N+](=O)[O-])c(O)c([N+](=O)[O-])c1`: the inhibition of the nicotinamide effect is inactive: -15.9%.
In the case of `COc1ccccc1OP(C)(=O)Nc1ccc(C)c(C)c1` (stereo not drawn) it was inactive: -3.81%; in that of `COc1ccc(OP(C)(=O)Nc2ccccc2Br)cc1` (stereo not drawn), inactive: -0.31%; in that of `Cc1c(NP(C)(=O)Oc2ccc(C(C)C)cc2)c(=O)n(-c2ccccc2)n1C` (stereo not drawn), inactive: -6.33%.
In the case of `COc1ccccc1OP(C)(=O)Nc1ccc(C)cc1C` (stereo not drawn) it was inactive: -17.3%.
The result for `CP(=O)(Nc1ccccn1)Oc1ccccc1` (stereo not drawn) reads inactive: -7.09%; that for `CCc1ccc(OP(C)(=O)O)cc1`, inactive: -15.7%; that for `COc1ccc(OP(C)(=O)Nc2ccccn2)cc1` (stereo not drawn), inactive: -13.9%.
As to `CN(C)CCOC(=O)C(O)(c1ccccc1)C1CCCC1` (stereo not drawn), the inhibition of the nicotinamide effect is inactive: -7.04%.
Take `CC(C)(C)c1ccc(OP(C)(=O)O)cc1`: the inhibition of the nicotinamide effect was inactive: -6.49%.
In the case of `CP(=O)(Nc1ccc(Cl)cc1)Oc1ccc(F)cc1` (stereo not drawn) it was inactive: -1.23%; in that of `COc1ccc(OP(C)(=O)Nc2ccc(Br)cc2)cc1` (stereo not drawn), inactive: 2.26%.
Consider `CCN(CC)CC(O)COC(=O)C(O)(c1ccccc1)C1CCCCC1` (stereo not drawn), for which the inhibition of the nicotinamide effect was inactive: -7.99%.
With `CP(=O)(Oc1ccccc1)N1CCOC1=O` (stereo not drawn), the inhibition of the nicotinamide effect was inactive: -3.45%.
In the case of `CCOC(=O)c1ccc(NP(C)(=O)Oc2ccc(Cl)cc2)cc1` (stereo not drawn) it was inactive: -2.99%; in that of `CP(=O)(OC12CC3CC(CC(C3)C1)C2)OC12CC3CC(CC(C3)C1)C2`, inactive: 0.59%; in that of `COc1ccc(OP(C)(=O)Nc2cccc(Br)c2)cc1` (stereo not drawn), inactive: 2.77%.
For `CN(C)CCOC(=O)C(O)(c1ccccc1)C1CCCCC1` (stereo not drawn), the inhibition of the nicotinamide effect is inactive: -13.8%.
For the compound `CP(=O)(Nc1ccc2c(c1)OCCO2)Oc1ccccc1` (stereo not drawn), the inhibition of the nicotinamide effect was inactive: -10.3%.
On to `Cc1ccccc1NP(C)(=O)Nc1ccccc1C`, for which the inhibition of the nicotinamide effect is inactive: -13%.
`CCOP(C)(=S)SCC(=O)NC(C)(CC)C(=O)O` (stereo not drawn): the inhibition of the nicotinamide effect is inactive: -14.6%.
In the case of `O=C(OCCN1CCN(CCOCc2ccccc2)CC1)C(O)(c1ccccc1)c1ccccc1`, the inhibition of the nicotinamide effect is inactive: 4.87%.
The result for `CP(=O)(Nc1ccccc1F)Oc1ccccc1` (stereo not drawn) reads inactive: -4.49%; that for `CC(C)c1ccc(OP(C)(=O)Nc2ccc(SC(F)(F)F)cc2)cc1` (stereo not drawn), inactive: 9.52%.
In the case of `CP(=O)(Nc1ccccc1)Oc1ccc(F)cc1` (stereo not drawn) it was inactive: -12.3%.
With `CCOC(=O)c1ccc(NP(C)(=O)Oc2ccc(F)cc2)cc1` (stereo not drawn), the inhibition of the nicotinamide effect is inactive: -0.94%.
In the case of `CC1=NCCc2c1[nH]c1ccccc21.O=[N+]([O-])c1cc([N+](=O)[O-])c(O)c([N+](=O)[O-])c1` it was inactive: -4.58%.
For `Cc1ccc(C)c(NP(C)(=O)Oc2ccccc2)c1` (stereo not drawn), the inhibition of the nicotinamide effect was inactive: -4.3%.
Take `Cc1cc(C)cc(OP(C)(=O)Nc2ccccn2)c1` (stereo not drawn): the inhibition of the nicotinamide effect was inactive: -2.58%.
With `CCOC(=O)c1ccc(NP(C)(=O)Oc2cc(C)cc(C)c2)cc1` (stereo not drawn), the inhibition of the nicotinamide effect is inactive: -0.59%.
In the case of `Cc1cc(C)cc(OP(C)(=O)Nc2ccc(C)cc2C)c1` (stereo not drawn) it was inactive: 0.78%.
Turning to `Cc1nc2ccc3ccccc3c2s1.O=[N+]([O-])c1cc([N+](=O)[O-])c(O)c([N+](=O)[O-])c1`, the inhibition of the nicotinamide effect is inactive: -16.7%.
The result for `COc1ccccc1OP(C)(=O)Nc1c(C)cccc1C` (stereo not drawn) reads inactive: -10.2%; that for `CN1CCCCC1COC(=O)C1(O)c2ccccc2CCc2ccccc21` (stereo not drawn), inactive: 1.25%.
Regarding `CP(=O)(Nc1ccc(SC(F)(F)F)cc1)Oc1ccccc1` (stereo not drawn), the inhibition of the nicotinamide effect was inactive: 3.45%.
The result for `CP(=S)(Nn1cnnc1)Oc1ccccc1` (stereo not drawn) reads inactive: -0.28%; that for `CP(=O)(Nc1ccccc1Br)Oc1ccccc1` (stereo not drawn), inactive: 0.92%; that for `CCOC(=O)c1ccc(NP(C)(=O)Oc2ccc(OC)cc2)cc1` (stereo not drawn), inactive: 5.62%.
`CCOP(C)(=S)SCC(=O)NC(C)C(=O)O` (stereo not drawn): the inhibition of the nicotinamide effect was inactive: -4.92%.
In the case of `CP(=O)(Nc1ccccn1)Oc1ccc(Cl)cc1` (stereo not drawn) it was inactive: 0.26%; in that of `Cc1cccc(C)c1OP(C)(=O)Nc1ccc(SC(F)(F)F)cc1` (stereo not drawn), inactive: 4.63%; in that of `Cc1cc(C)cc(OP(C)(=O)Nc2ccc(SC(F)(F)F)cc2)c1` (stereo not drawn), inactive: -2.88%.
As for `CP(=O)(NC(=O)Nc1ccccc1)Oc1ccccc1` (stereo not drawn), the inhibition of the nicotinamide effect was inactive: -9.85%.
With `Cc1ccc(NP(C)(=O)Oc2ccccc2)c(C)c1` (stereo not drawn), the inhibition of the nicotinamide effect was inactive: -6.29%.
Take `COc1ccccc1OP(C)(=O)Nc1ccc(C)cc1` (stereo not drawn): the inhibition of the nicotinamide effect was inactive: -4.12%.
The result for `CCOC(=O)c1ccc(NP(C)(=O)Oc2ccccc2)cc1` (stereo not drawn) reads inactive: 3.62%; that for `COc1ccc(OP(C)(=O)Nc2cccc(F)c2)cc1` (stereo not drawn), inactive: -10.8%.
As for `CC(C)(C)c1ccc(OP(C)(=O)Nc2ccc(SC(F)(F)F)cc2)cc1` (stereo not drawn), the inhibition of the nicotinamide effect was inactive: 1.99%.
